In patent US7931791B2, “Method of detecting analyte-biomolecule interactions” (Southern Illinois University Carbondale, priority 2006, dated 2011):

Biological target: T1, ligand binding domain (LBD) of the human progesterone receptor (Homo sapiens, UniProt P06401)
T1 construct: purchased Invitrogen (Carlsbad, Calif.)
T1 sequence (P06401 679-913 limits assumed): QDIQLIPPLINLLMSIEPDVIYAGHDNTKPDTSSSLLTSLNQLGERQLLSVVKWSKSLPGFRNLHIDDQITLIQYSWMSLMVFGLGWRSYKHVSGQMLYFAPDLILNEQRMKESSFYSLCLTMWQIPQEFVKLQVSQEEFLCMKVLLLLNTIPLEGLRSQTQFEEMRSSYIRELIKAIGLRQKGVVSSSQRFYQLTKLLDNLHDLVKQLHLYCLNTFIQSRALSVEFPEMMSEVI
Assay: progesterone ligand binding assay by capillary IEF with fluorescence anisotropy
Conditions: ~100 nM of each labeled protein, 100 nM fluorescein labeled progesterone, 1% ampholytes, focused at 300V; FIG. 9D

anisotropy in the region containing the progesterone ligand/receptor complex: high anisotropy
SMILES: CC(=O)[C@H]1CC[C@H]2[C@@H]3CCC4=CC(=O)CC[C@]4(C)[C@H]3CC[C@]12C [progesterone]
